This is an account of results in patent publication US9163012B2, “Carbamate and urea inhibitors of 11β-hydroxysteroid dehydrogenase 1” (Vitae Pharmaceuticals, Inc., priority 2009, dated 2015).

Amino acid sequences for entries named in this document (tags omitted). A change or cut given only in a name is not applied to a line headed by its entry.
UniProt P28845: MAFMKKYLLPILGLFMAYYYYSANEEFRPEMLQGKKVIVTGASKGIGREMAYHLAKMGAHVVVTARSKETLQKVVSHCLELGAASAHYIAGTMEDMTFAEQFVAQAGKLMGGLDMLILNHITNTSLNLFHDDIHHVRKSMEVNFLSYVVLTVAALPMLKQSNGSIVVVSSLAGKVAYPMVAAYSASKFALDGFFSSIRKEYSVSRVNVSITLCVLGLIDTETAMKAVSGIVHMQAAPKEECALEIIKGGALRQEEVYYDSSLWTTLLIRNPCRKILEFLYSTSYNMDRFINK

The term IC50 denotes the concentration that gives 50% inhibition.

Structures are written as SMILES. Where two headings read alike, the source gives them in different places. Where only a bound is given, the exact number is not on record here.

The target in the test is 11β-HSD1 (Homo sapiens (Human), UniProt P28845). The test is described as follows: Biological Test Example 1: inhibition of a microsomal preparation of 11β-HSD1 (SPA). It is filed as biochemical. The method, then:
All reactions were carried out at rt in 96 well clear flexible PET Microbeta plates (PerkinElmer). […] After a 10 minute pre-incubation, 50 μL of enzyme solution containing microsomes isolated from CHO cells overexpressing human 11-HSD1 (10-20 μg/ml of total protein) was added, and the plates were incubated for 90 minutes at rt. The reaction was stopped by adding 50 μl of the SPA beads suspension containing 10 μM […], 5 mg/ml protein A coated YSi SPA beads (GE Healthcare) and 3.3 μg/ml of anti-cortisol antibody (East Coast Biologics) in Superblock buffer (Bio-Rad). The plates were shaken for 120 minutes at rt, and the SPA signal corresponding to [^3H]cortisol was measured on a Microbeta plate reader.

The mark [1] stands for this setting: microsomes from CHO cells overexpressing human 11β-HSD1, read-out: IC50 Range.

Turning to `O=C(OC1C2CC3CC1CC(O)(C3)C2)N1CCC(c2ncc(Cl)cn2)C1` (single isomer, unassigned) [EXAMPLE 24 Isomer 1, trans-1-hydroxy-4-adamantyl 3-(5-chloropyrimidin-2-yl)pyrrolidine-1-carboxylate], the half-maximal inhibitory concentration (IC50) runs as follows: under setting [1], less than 100 nM; (read-out: IC50) 2.29 nM.
Taken in the same sequence, the figures for `O=C(OC1C2CC3CC1CC(O)(C3)C2)N1CCC(c2ncc(Cl)cn2)C1` (single isomer, unassigned) [EXAMPLE 24 Isomer 2, cis-1-hydroxy-4-adamantyl 3-(5-chloropyrimidin-2-yl)pyrrolidine-1-carboxylate] were greater than 100 nM and no less than 100 nM.
Taken in the same sequence, the figures for `Cc1ccc(C2CCN(C(=O)OC3C4CC5CC3CC(C(N)=O)(C5)C4)C2)nn1` (single isomer, unassigned) [EXAMPLE 37 Isomer 1, trans-1-carbamoyl-4-adamantyl 3-(6-methylpyridazin-3-yl)pyrrolidine-1-carboxylate] were less than 100 nM and 16.3 nM.
As for `Cc1ccc(C2CCN(C(=O)OC3C4CC5CC3CC(C(N)=O)(C5)C4)C2)nn1` (single isomer, unassigned) [EXAMPLE 37 Isomer 2], the 50% inhibitory concentration (IC50) by setting is: under setting [1], greater than 100 nM; (read-out: IC50) greater than 100 nM.
For `NC(=O)C12CC3CC(C1)C(OC(=O)N1CCC(c4ncc(F)cn4)C1)C(C3)C2` (single isomer, unassigned) [EXAMPLE 41 Isomer 1, 1-carbamoyl-4-adamantyl 3-(5-fluoropyrimidin-2-yl)pyrrolidine-1-carboxylate], the half-inhibitory concentration (IC50) was less than 100 nM under setting [1] and 2.99 nM (read-out: IC50).
Taken in the same sequence, the figures for `NC(=O)C12CC3CC(C1)C(OC(=O)N1CCC(c4ncc(F)cn4)C1)C(C3)C2` (single isomer, unassigned) [EXAMPLE 41 Isomer 2, 1-carbamoyl-4-adamantyl 3-(5-fluoropyrimidin-2-yl)pyrrolidine-1-carboxylate] were less than 100 nM and 48.8 nM.
Taken in the same sequence, the figures for `Cc1csc(C2CCN(C(=O)OC3C4CC5CC3CC(C(N)=O)(C5)C4)C2)n1` (single isomer, unassigned) [EXAMPLE 42 Isomer 1, transl-carbamoyl-4-adamantyl 3-(4-methylthiazol-2-yl)pyrrolidine-1-carboxylate] were less than 100 nM and 2.08 nM.
Consider `Cc1csc(C2CCN(C(=O)OC3C4CC5CC3CC(C(N)=O)(C5)C4)C2)n1` (single isomer, unassigned) [EXAMPLE 42 Isomer 2, cis-1-carbamoyl-4-adamantyl 3-(4-methylthiazol-2-yl)pyrrolidine-1-carboxylate], for which the IC50 was greater than 100 nM under setting [1] and greater than 100 nM (read-out: IC50).
Regarding `COc1cnc(C2CCN(C(=O)OC3C4CC5CC3CC(C(N)=O)(C5)C4)C2)nc1` (single isomer, unassigned) [EXAMPLE 44 Isomer 1, 1-carbamoyl-4-adamantyl 3-(5-methoxypyrimidin-2-yl)pyrrolidine-1-carboxylate], the IC50 was less than 100 nM under setting [1] and 3.11 nM (read-out: IC50).
Taken in the same sequence, the figures for `COc1cnc(C2CCN(C(=O)OC3C4CC5CC3CC(C(N)=O)(C5)C4)C2)nc1` (single isomer, unassigned) [EXAMPLE 44 Isomer 2, 1-carbamoyl-4-adamantyl 3-(5-methoxypyrimidin-2-yl)pyrrolidine-1-carboxylate] were greater than 100 nM and greater than 100 nM.
Taken in the same sequence, the figures for `NC(=O)C12CC3CC(C1)C(OC(=O)N1CCC(c4nccc(C(F)(F)F)n4)C1)C(C3)C2` (single isomer, unassigned) [EXAMPLE 48 Isomer 1, trans-1-carbamoyl-4-adamantyl 3-(4-(trifluoromethyl)pyrimidin-2-yl)pyrrolidine-1-carboxylate] were less than 100 nM and 2.7 nM.
On to `NC(=O)C12CC3CC(C1)C(OC(=O)N1CCC(c4nccc(C(F)(F)F)n4)C1)C(C3)C2` (single isomer, unassigned) [EXAMPLE 48 Isomer 2, cis-1-carbamoyl-4-adamantyl 3-(4-(trifluoromethyl)pyrimidin-2-yl)pyrrolidine-1-carboxylate], for which the 50% inhibitory concentration (IC50) is, setting by setting: under setting [1], greater than 100 nM; (read-out: IC50) greater than 100 nM.
